## Measured affinities in a library of Ab-91 heavy chain variants

Source: Engelhart et al. 2022 (doi:10.1038/s41597-022-01779-4), MIT Lincoln Laboratory and A-Alpha Bio; data file from the FLAb repository.

Target peptide (SARS-CoV-2 spike, HR2 region): PDVDLGDISGINAS

Parent scFv Ab-91: VL joined to VH by the linker GGGGSGGGGSGGGGS. Changes lie in the heavy chain CDRs alone.
VL: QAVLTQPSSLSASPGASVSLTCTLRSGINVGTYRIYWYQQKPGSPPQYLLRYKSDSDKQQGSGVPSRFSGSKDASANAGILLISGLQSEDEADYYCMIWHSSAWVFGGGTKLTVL
VH: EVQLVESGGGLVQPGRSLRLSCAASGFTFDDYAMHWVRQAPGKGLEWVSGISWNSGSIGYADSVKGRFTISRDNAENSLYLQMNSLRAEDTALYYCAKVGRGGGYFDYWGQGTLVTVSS

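The starting antibody came from a phage panning campaign against this peptide. The library (AAYL51) carries one to three amino acid substitutions per variant, with no insertions or deletions. The scFvs were displayed on barcoded MATa yeast, the peptide on MATalpha yeast. The frequency of each diploid, read from paired DNA barcodes, reflects how well the two displayed proteins bind. Each replicate has its own calibration line, from reference interactions of the BCL2 family. There are three technical replicates.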

Each variant is given by its three heavy chain CDRs, as the data file delimits them; those of the parent are GFTFDDYAMH, GISWNSGSIGYADSVK, VGRGGGYFDY. The Kd shown is the geometric mean over detected replicates; a lower Kd is a better binder. "nd" means that the variant was in the library but no mating with the target was seen in any replicate; the authors take this as a sign of poor binding, and no number exists. In this assay the parent's reference entry averaged 72 nM; its copy inside this library read 7.5 nM. Empty control strains, which show no peptide, gave a signal in 21% of pairings with library AAYL51; the median was 34 µM and 95% of these signals were weaker than 1.8 µM. No background was subtracted.

CDR-H1,CDR-H2,CDR-H3,Kd,replicates with signal
LFTFDDYAMH,GISWNVGSIGYADSVK,VGRGGGYCDY,nd,0/3
GFTFDVIAMH,GISNNSGSIGYADSVK,VGRGGGYFDY,3.0 µM,1/3
GFTFDDYAIH,GIRWNSGSISYADSVK,VGRGGGYFDY,nd,0/3
GFYFDDYAMH,GISWNSGSIGYADSVK,VGRGGGDFDY,nd,0/3
GFTFDDYSMH,GISWNLGSIGYADSVQ,VGRGGGYFDY,340 µM,1/3
GFTFDDYAMH,GISVNSGSIGYFDSVK,VMRGGGYFDY,34 µM,2/3
GFTYDDYAMH,GISWNSNSIGYADSVK,DGRGGGYFDY,nd,0/3
GDTFDDPAMH,GISWNSGSIGSADSVK,VGRGGGYFDY,64 µM,2/3
GFTLDDYAMH,GISWNSGSIGYADSVK,VGRGGGYFDP,26 µM,1/3
GFTFDDYAMH,GIIWNSGSIGYADSVK,NGRGGGYFDY,360 µM,1/3
GFTFDVYAMA,GISWNCGSIGYADSVK,VGRGGGYFDY,nd,0/3
GFTKDDYAMH,GISGNSGSIGYADSVK,VGRGGGYFYY,nd,0/3
GFTMHDYAMH,GISWNSGSIGYADSNK,VGRGGGYFDY,6.3 µM,3/3
GFTFDDYAMH,GISWNSGSIGYADIVG,VGRGGGMFDY,49 µM,2/3
GFTNDDYAMH,GISWNIGSIGYADSVK,VGRGGGYFDY,nd,0/3
GFTFDDYARH,GISWMSGSIGYADSVK,VGRGGGYMDY,61 µM,1/3
GFTFDDYAMH,GISHNSGSIGYADSVK,VGRGGTYFDQ,51 nM,3/3
GFTFDDYALH,GISWNSGSIGYADSVK,VGRLGGYLDY,nd,0/3
GFTCDDYAMH,GISWNSGSIGYADSEK,VGRCGGYFDY,26 µM,3/3
GFTFRDYAMH,GISWNSGSIGYADSCK,VGRGGGYFDY,nd,0/3
GFTFDDYAMH,GCSWNSGSIGYADSVK,VGQGGYYFDY,nd,0/3
GFTFDDYAMH,GISVNSGSIGYADSVK,VGRGSMYFDY,160 µM,3/3
GFGFDDVAMH,GISWNSGSIGYADSVK,VGRGGGYFDY,nd,0/3
GFTFDDYAMH,MISWNSGSDGYADSVF,VGRGGGYFDY,230 µM,2/3
GFTFDDYAMH,VYSWNSGSWGYADSVK,VGRGGGYFDY,7.3 µM,1/3
GFTFDDYAMH,GISSNSGSIGYADSVQ,VGRGGPYFDY,82 µM,3/3
GFLFDDYAMH,GISWNSGSIGYADSKK,VGRMGGYFDY,nd,0/3
GFTFDDMAMH,GISWNSGHIGYADSVK,VGRGGGYFDA,nd,0/3
GFTFDDYAMH,GISWNSGRIGYADKVK,VGRGCGYFDY,nd,0/3
GFQFSDYAMH,GISWNSGSIGYADSVK,VGLGGGYFDY,21 nM,3/3
GFTFDDYAMH,GISWNQGSIMYADSVE,VGRGGGYFDY,nd,0/3
GFTFDDYAMH,GISWNSGLIGYADSVK,TGLGGGYFDY,nd,0/3
GFTFDDYAMH,GISDNSGSIGYADLVK,VGRFGGYFDY,66 µM,2/3
GFTFDDYHMH,KISWNSGSIGYADSVD,VGRGGGYFDY,100 µM,3/3
GFTFDDYAMH,GISWNSGSIGYESSVK,VGPGGGYFDY,21 µM,2/3

Continued, with the values leading:

Kd,replicates with signal,CDR-H1,CDR-H2,CDR-H3
340 µM,2/3,NFTFDDYHMH,GISWNSGSIGYADSVK,SGRGGGYFDY
160 µM,1/3,GFSFDDKAMH,GISWNSGSIGYADSVK,VGGGGGYFDY
nd,0/3,GFTFDDYACH,GISWNSGSIGYADSVK,VGRGFGYFTY
nd,0/3,GFTFDVYAMQ,GISWNSGTIGYADSVK,VGRGGGYFDY
880 µM,1/3,EFTFDDYAMH,IISWNSGSIGYADSVN,VGRGGGYFDY
nd,0/3,WFTFDDNAMH,GISWNSGSIGYADSVK,VGRGGGYFDY
4.7 µM,2/3,GFTFDDYAMH,GISWNSGSLGYAPSVK,VGRGGEYFDY
35 µM,2/3,PFTFDDYAMH,GISWNSGSIGYADSVP,VGRGGGYFDY
nd,0/3,GPTHDDYAMH,GISWNSGSIGYADSVK,VGRGGVYFDY
17 µM,2/3,GFTDDDYAMH,GISWNSGSIGYADSVK,VGGGGGYFDY
13 µM,3/3,GFTFDVYAMH,GISWNSGSIMYADSVK,VGRGGGYFDH
nd,0/3,GFTFDDYAMH,GWSWNAGSIGYADSVK,VGRGGGYFDK
140 µM,1/3,GFTFDDYAMH,GISWNSPSIGYADSVK,LGRGGGTFDY
73 µM,3/3,GFTFDDYAMH,GRSWASGSIGYADSVK,RGRGGGYFDY
150 µM,1/3,GFTFDDDAMH,GISWNGGSIGYADSVK,VGRGGGYFDY
nd,0/3,GFTFDDYAMH,GISWNSHSIGYADSVK,VGRGEGYFDY
16 µM,1/3,GDTFDDYAMH,GISNRSGSIGYADSVK,VGRGGGYFDY
nd,0/3,GFTFDDYAMH,GISNNSGSIGYADSVK,VGTGGGYYDY
3.5 µM,2/3,GFCFDDYAMH,GISWNNGSIGYADSVK,VGRGGGYFDK
nd,0/3,GFTFDDYAMH,GISWNSGFIGYADSVK,VHAGGGYFDY
240 µM,2/3,GFYFDDYACH,GISWDSGSIGYADSVK,VGRGGGYFDY
nd,0/3,GFTFDDYAMG,GISWNSGSIGIADSVF,VGRGGGYFDY
250 µM,3/3,GFTFDDYAMH,GISWNSGSIGWADSRK,VGRGGGNFDY
150 µM,1/3,WFTFPDYAMH,GISWNSGSIGYADSVK,VGRGIGYFDY
15 µM,3/3,GFTFDDYAMH,GLSWNSGFIGYADSVK,VQRGGGYFDY
64 µM,1/3,GFTFDDYAMH,GISWNSGSIGYADSVK,VGRGGGYTRP
nd,0/3,EFTFDDYAMH,GISYNSGSIGYADSCK,VGRGGGYFDY
5.2 µM,3/3,GFTFMDYAMH,GISWNSRSIGYASSVK,VGRGGGYFDY
16 µM,1/3,GFTFDDYAMH,GISWNSPSESYADSVK,VGRGGGYFDY
nd,0/3,GFTFDDYAMH,GIFWNSGSIGYADSVK,VGNGGGIFDY
nd,0/3,GFTFDDYAQH,GISWNWGSIGYADSVK,VGRHGGYFDY
180 nM,3/3,GFTFDDRAMH,GISWNSDSIGYADSVY,VGRGGGYFDY
140 µM,2/3,GFTFDDYAMH,GISWNSGSIGYANSAK,VGAGGGYFDY
nd,0/3,GFTFDDYAMH,GISWNSGQIGYADSVK,LGCGGGYFDY
2.1 µM,3/3,GYCFDDYAMH,GISWNSGSIGYADSVK,VGRGLGYFDY